Experimental data reported in patent US9289488B2, “Vaccine engineering” (AC Immune SA, priority 2010, dated 2016).
pKd: −log10 of the molar value. Where two headings read alike, the source gives them in different places.

Assays:
[1] = ThT fluorescence binding to liposomal peptide constructs; conditions: for pKd: ThT binding, read-out: App. Kd; for Bmax (50-fold dilution) / Bmax (8-fold dilution): different lipidation patterns; for ThT fluorescence emission (in words): emission at 485 nm, excitation 440 nm, PBS
Description: • CD spectra were acquired on a Jasco-815 spectropolarimeter (Japan) with a 0.1 cm path length quartz cuvette at 23° C. Measurements were made with a 1.0 nm bandwidth and 0.5 nm resolution. A scan speed of 50 nm/min was employed with response time of 1 s. Solvent control spectra (4 scans) were averaged and subtracted from the average of 8 scans of each sample spectra. All spectra ([θ]obs, degrees) were smoothed after being converted to mean residue molar ellipticity ([θ], degrees cm^2 dmol^−1) with the equation [θ]=[θ]obs×(MRW/10lc), where MRW is the mean residue molecular weight (MW/number of residues), l is the optical path length (cm) and c is the concentration (g/cm^3). […] Spectra of the corresponding empty liposomes lacking peptide were subtracted. A2 ThT Fluorescence. • Fluorescence emission spectra were measured at 25° C. on a Tecan M200 spectrofluorimeter with an excitation of 440 nm. […] Data were fitted using non-linear regression analysis (SigmaPlot v10.0) assuming single-site binding saturation in order to calculate apparent Kd and maximal binding Bmax. A3 Disaggregation Assay Using ThT Fluorescence. • ZnCl2, FeCl3 or CuCl2 (2 μL, 1 mM in H2O) were incubated with liposomes diluted 4-fold in PBS (48 μL) for 2 h at 22° C. PBS (48 μL) with or without DPTA (0.4 mM) was added accordingly after 5 min. ThT (2 μL, 2.4 mM in H2O) was then added and fluorescence measured after a further 5 min. For disaggregation with small molecules, Rosmarinic acid, Tannic acid or Methylene Blue (2 μL, 2.7 mM in PBS) were added to 86 μL of liposomes diluted 8-fold with PBS. After 2 h incubation at RT, ThT (2 μL, 2.4 mM in H2O) was added and after 10 min. fluorescence was measured at 490 nm (Ex. 440 nm). A4 MAS-NMR Spectroscopy. • Experiments were conducted using a 3.2 mm triple-resonance (^1H, ^13C, ^15N) MAS probe (Bruker Biospin, Germany) at a static magnetic field of 16.4 T corresponding to 700 MHz proton resonance frequency. […] Experiments were recorded using 10 kHz MAS and at effective sample temperature of about 4° C. After a cross polarization (CP) step employing a contact time of 600 μs, the SPC5 pulse sequence was used for generation of DQ coherence, with a ^13C radio frequency (r.f.) field strength of 50 kHz and DQ excitation and reconversion time totaling 2.28 ms. Acquisition involved in each case 110K repetitions. An ^1H field strength of 83.3 kHz was used during excitation and SPINAL64 proton decoupling. A5 SPR Analysis of Peptide-Liposome Interactions. • Experiments were performed at 25° C. using 0.2 μm filtered and degassed PBS as running buffer. An L1 sensor chip (GE Healthcare, Sweden) was docked into a BIAcore 1000 instrument and the chip surface conditioned by injection of 50 μL of Zwittergent at 30 μL/min. Liposomes lacking peptide (‘empty’ liposomes) were then immobilized onto the sensor chip following 2 successive injections of 50 μL at 2 μL/min. Finally 50 μL of 50 mM NaOH was injected over the surface at 30 μL/min in order to render the surface more unilamellar. […] 50 μL of acetylated peptides solubilized in PBS were then injected over the surface over a range of concentrations at a flow rate of 30 μL/min, followed by dissociation with PBS for 300 s. After analysis of the interaction of different peptides, a fresh lipid bilayer was immobilized. A6 Dynamic Light Scattering. • Liposome samples were diluted 100-fold with PBS. Analysis was performed using a Zetasizer Nano (Malvern, USA) at 25° C. Data was analyzed with DTS 5.0 (Malvern) software by signal intensity in order to calculate the average liposome diameter and polydispersity index (PDI).

[2] = CD spectroscopy of peptide secondary structure; type: physicochemical; conditions: PBS; palmitoylated peptides in liposomes, acetylated peptides alone
Description: • CD spectra were acquired on a Jasco-815 spectropolarimeter (Japan) with a 0.1 cm path length quartz cuvette at 23° C. Measurements were made with a 1.0 nm bandwidth and 0.5 nm resolution. A scan speed of 50 nm/min was employed with response time of 1 s. Solvent control spectra (4 scans) were averaged and subtracted from the average of 8 scans of each sample spectra. All spectra ([θ]obs, degrees) were smoothed after being converted to mean residue molar ellipticity ([θ], degrees cm^2 dmol^−1) with the equation [θ]=[θ]obs×(MRW/10lc), where MRW is the mean residue molecular weight (MW/number of residues), l is the optical path length (cm) and c is the concentration (g/cm^3). For analysis liposomal suspensions were diluted 6-fold in PBS to give final peptide concentrations between 10 to 40 μM. Spectra of the corresponding empty liposomes lacking peptide were subtracted. A2 ThT Fluorescence. • Fluorescence emission spectra were measured at 25° C. on a Tecan M200 spectrofluorimeter with an excitation of 440 nm. Liposomes were diluted 8-fold in PBS to give a final peptide concentration of 15 μM and then ThT added at different concentrations. Data were fitted using non-linear regression analysis (SigmaPlot v10.0) assuming single-site binding saturation in order to calculate apparent Kd and maximal binding Bmax. A3 Disaggregation Assay Using ThT Fluorescence. • ZnCl2, FeCl3 or CuCl2 (2 μL, 1 mM in H2O) were incubated with liposomes diluted 4-fold in PBS (48 μL) for 2 h at 22° C. PBS (48 μL) with or without DPTA (0.4 mM) was added accordingly after 5 min. ThT (2 μL, 2.4 mM in H2O) was then added and fluorescence measured after a further 5 min. For disaggregation with small molecules, Rosmarinic acid, Tannic acid or Methylene Blue (2 μL, 2.7 mM in PBS) were added to 86 μL of liposomes diluted 8-fold with PBS. After 2 h incubation at RT, ThT (2 μL, 2.4 mM in H2O) was added and after 10 min. fluorescence was measured at 490 nm (Ex. 440 nm). A4 MAS-NMR Spectroscopy. • Experiments were conducted using a 3.2 mm triple-resonance (^1H, ^13C, ^15N) MAS probe (Bruker Biospin, Germany) at a static magnetic field of 16.4 T corresponding to 700 MHz proton resonance frequency. For analysis, the amino acids A(2), S(9) and G(10) of Palm1-15 were uniformly labeled with ^13C and ^15N. […] Experiments were recorded using 10 kHz MAS and at effective sample temperature of about 4° C. After a cross polarization (CP) step employing a contact time of 600 μs, the SPC5 pulse sequence was used for generation of DQ coherence, with a ^13C radio frequency (r.f.) field strength of 50 kHz and DQ excitation and reconversion time totaling 2.28 ms. Acquisition involved in each case 110K repetitions. An ^1H field strength of 83.3 kHz was used during excitation and SPINAL64 proton decoupling. A5 SPR Analysis of Peptide-Liposome Interactions. • Experiments were performed at 25° C. using 0.2 μm filtered and degassed PBS as running buffer. An L1 sensor chip (GE Healthcare, Sweden) was docked into a BIAcore 1000 instrument and the chip surface conditioned by injection of 50 μL of Zwittergent at 30 μL/min. Liposomes lacking peptide (‘empty’ liposomes) were then immobilized onto the sensor chip following 2 successive injections of 50 μL at 2 μL/min. Finally 50 μL of 50 mM NaOH was injected over the surface at 30 μL/min in order to render the surface more unilamellar. After this wash step typically around 8000 RUs of liposomes remained immobilized. […]

[3] = different lipidation patterns (Table 5)

Substance | pKd [1, 3] | Bmax (50-fold dilution) [1] | ThT fluorescence emission (in words) [1] | Secondary structure by CD spectroscopy [2] | Bmax (8-fold dilution) [1] | pKd ([1]; liposomes DMPC/DMPG/cholesterol/MPLA 9:1:7:0.06, diluted 8-fold, single site fit) | Bmax ([1]; ThT fluorescence at saturation, liposomes DMPC/DMPG/cholesterol/MPLA 9:1:7:0.06, diluted 8-fold) | Bmax (% rel. ACI-24) ([1]; relative to ACI-24 (Palm1-15)) [%]
H-DAEFRHDSGYEVHHQ-K(Palm)-K(Palm)-K(Palm)-K(Palm)-OH [Palm1-15(4C)] | 5.82 | 31756 | much higher ThT fluorescence emission | classical β-sheet CD spectra |  |  |  | 
H-DAEFRHDSGYEVHHQ-K(Palm)-K(Palm)-OH [Palm1-15(2C)] | 5.37 |  |  | classical β-sheet CD spectra | 31898 |  |  | 
H-DAEFRHDSGYEVHHQ-K(Palm)-OH [Palm1-15(1C)] | 5.25 |  | only a very low signal | mixture of random coil and β-sheet conformations | 7093 |  |  | 
H-K(Butanoyl)-K(Butanoyl)-DAEFRHDSGYEVHHQ-K(Butanoyl)-K(Butanoyl)-OH [Butyl 1-15] | 5.14 |  |  |  | 476 |  |  | 
H-K(Dodecanoyl)-K(Dodecanoyl)-DAEFRHDSGYEVHHQ-K(Dodecanoyl)-K(Dodecanoyl)-OH [Dodecyl 1-15] | 5.92 |  |  |  | 26415 |  |  | 
H-K(Octanoyl)-K(Octanoyl)-DAEFRHDSGYEVHHQ-K(Octanoyl)-K(Octanoyl)-OH [Octyl 1-15] | 5.24 |  |  |  | 9184 |  |  | 
H-K(Palm)-DAEFRHDSGYEVHHQ-K(Palm)-OH [Palm1-15(1N1C)] | 4.45 |  | only very weakly fluorescent | extended β-strand conformation | 2488 |  |  | 
H-K(X)-K(X)-DAEFRHDSGYEVHHQ-K(X)-K(X)-OH [Palm1-15] |  | 8140 |  | β-sheet secondary structure | 36318 | 5.62 | 36318 | 100
